Tests used:
CYP3A [1] = conditions: male, human, in vivo, 168 h
Method: (§1) The subject was not receiving any medication. […] Urine samples were obtained at a timed period (0-2, 2-4, 4-6, 6-8, 8-10, and 10-12) and the volume of the urine samples was noted. The recommended frequency of blood sampling is at least one time during a 2-hour urine collection. Urinary concentrations of cortisol and 6β-hydroxycortisol and plasma concentrations of cortisol were determined by HPLC and GC-MS, respectively. “The endogenous metabolic clearance (CLm(6β)-endo)” was calculated by Equation 4.
c) The fractional metabolic clearance for the 6β-hydroxylation of endogenous cortisol (CLm(6β)) is expressed as the amount of urinary excreted 6β-hydroxycortisol (X(6β)) divided by the area under the concentration-time curve of cortisol (AUC(F)); that is, CLm(6β)=X(6β)/AUC(F).

CYP3A [2] = experiment: Effect of clarithromycin on in vivo CYP3A activity by urinary 6β-hydroxycortisol/cortisol ratio (conventional index); design: species or system human; conditions: Subject D, clarithromycin days 1 to 6, FIG. 4
Method: as §1

Compound: CC[C@H]1OC(=O)[C@H](C)[C@@H](O[C@H]2C[C@@](C)(OC)[C@@H](O)[C@H](C)O2)[C@H](C)[C@@H](O[C@@H]2O[C@H](C)C[C@H](N(C)C)[C@H]2O)[C@](C)(OC)C[C@@H](C)C(=O)[C@H](C)[C@@H](O)[C@]1(C)O [clarithromycin]
- CLm(6β)-endo (CYP3A [1]): 2.56 mL/min
- inhibition of in vivo CYP3A activity by urinary 6β-hydroxycortisol/cortisol ratio as index (CYP3A [2]): could not be well evaluated

Reference: patent publication US6905839B2, “In vivo phenotyping for human cytochrome P450 3A activity” (priority 2002, dated 2005)
